Target: 5-hydroxytryptamine receptor 4 (Homo sapiens, UniProt Q13639)

Chains of the proteins cited; added tags and fusions are not shown. Lines headed by an entry give the natural chain unless they say otherwise; changes in a name come on top.
UniProt Q13639: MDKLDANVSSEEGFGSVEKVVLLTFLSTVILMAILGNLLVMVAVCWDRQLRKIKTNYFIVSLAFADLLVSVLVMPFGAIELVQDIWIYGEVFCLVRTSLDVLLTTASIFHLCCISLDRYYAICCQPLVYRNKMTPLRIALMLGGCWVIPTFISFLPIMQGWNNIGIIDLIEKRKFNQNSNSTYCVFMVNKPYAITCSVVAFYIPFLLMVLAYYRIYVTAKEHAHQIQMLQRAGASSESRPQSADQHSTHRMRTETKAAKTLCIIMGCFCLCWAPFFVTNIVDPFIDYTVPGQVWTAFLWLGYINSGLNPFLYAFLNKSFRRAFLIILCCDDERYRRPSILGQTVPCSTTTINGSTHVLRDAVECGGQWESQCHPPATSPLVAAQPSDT

COc1cc(N)c(Cl)cc1C(=O)NC1CCN2CCCC1C2 (stereo unspecified) [NSC_3035240]
Ki: 200 nM
